Literature values in US7671017B2, “Use of a combination of cyclosporine and pegylated interferon for treating hepatitis C (HCV)” (Novartis AG, priority 2004, dated 2010).

Tested on: HCV
Conditions: patients with chronic HCV; given once weekly vs unpegylated interferon alfa-2a three times weekly

**Q.** With “pegylated interferon alfa-2a: interferon alfa-2a with a covalently attached polyethylene glycol (PEG) moiety” as the substance, how does the “effectiveness of treatment of chronic HCV” value read?
**A.** more effective treatment than a regimen of unpegylated interferon alfa-2a given three times weekly
